Measurements taken from US20120220522A1, “ESTER INSULIN” (priority 2009, published 2012).

Target: insulin receptor (IR), B-isoform (UniProt P06213)
Assay: receptor binding affinity; displacement of 125I-human insulin from isolated IR isoform B, two-site sequential model

mature insulin lispro (3) derived from ester insulin lispro (ligand)
Kd: 44 pM
